Starred links: 1 amine or outer side, 2 acyl side, 3 side chain; linkers in the order of their positions; H or OH if unused. Non-standard residues stand in square brackets, D forms with d. Residues, ends and D or L forms follow the SMILES beside them. X1 = CC(C)[C@H](N)CN([C@@H](Cc1ccc(O)cc1)C(=O)[*:2])[*:1]; Nle = CCCC[C@H](N)C(=O)O; GABA = NCCCC(=O)O; Sar = CNCC(=O)O
Columns and labels:
AT4 receptor [1] = target: T1, AT4 receptor (Bos taurus, UniProt F1N1Q8); experiment: 125I-AIV binding and competition, solubilized bovine adrenal cortical receptor; conditions: read-out: Ki, competition of 125I-AIV binding
T1 sequence (F1N1Q8 1-1022): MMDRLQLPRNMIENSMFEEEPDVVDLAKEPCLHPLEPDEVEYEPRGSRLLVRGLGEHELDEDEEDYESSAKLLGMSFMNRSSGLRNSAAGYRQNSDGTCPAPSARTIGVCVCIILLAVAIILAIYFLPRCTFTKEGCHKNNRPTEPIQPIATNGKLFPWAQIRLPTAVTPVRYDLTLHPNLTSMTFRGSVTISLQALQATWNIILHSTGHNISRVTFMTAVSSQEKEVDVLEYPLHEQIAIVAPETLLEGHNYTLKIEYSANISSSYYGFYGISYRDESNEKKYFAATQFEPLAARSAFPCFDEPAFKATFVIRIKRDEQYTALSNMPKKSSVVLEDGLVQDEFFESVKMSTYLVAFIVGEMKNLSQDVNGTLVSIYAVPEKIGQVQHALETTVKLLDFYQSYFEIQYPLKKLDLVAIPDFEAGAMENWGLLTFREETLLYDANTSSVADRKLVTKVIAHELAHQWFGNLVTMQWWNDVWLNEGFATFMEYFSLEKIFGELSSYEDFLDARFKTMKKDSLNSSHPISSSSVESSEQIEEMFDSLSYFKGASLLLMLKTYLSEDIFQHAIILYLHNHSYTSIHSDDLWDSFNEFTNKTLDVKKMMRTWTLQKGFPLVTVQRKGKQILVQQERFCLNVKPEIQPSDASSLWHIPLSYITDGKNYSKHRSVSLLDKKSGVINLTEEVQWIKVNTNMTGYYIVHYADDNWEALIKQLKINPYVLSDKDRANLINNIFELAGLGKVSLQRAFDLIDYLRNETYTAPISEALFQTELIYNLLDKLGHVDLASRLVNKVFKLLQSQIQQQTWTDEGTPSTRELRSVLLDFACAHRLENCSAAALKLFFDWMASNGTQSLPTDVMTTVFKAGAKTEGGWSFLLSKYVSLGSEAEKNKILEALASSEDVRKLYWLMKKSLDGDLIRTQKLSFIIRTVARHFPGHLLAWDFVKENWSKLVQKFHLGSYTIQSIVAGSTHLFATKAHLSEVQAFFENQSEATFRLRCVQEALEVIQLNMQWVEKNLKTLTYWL

AT4 receptor [2] = target: T1, AT4 receptor; experiment: 125I-AIV binding and competition, bovine coronary venular endothelial cell (CVEC) membranes
AT4 receptor [3] = target: T1, AT4 receptor; experiment: 125I-AIV binding and competition, bovine adrenal cortical membranes; conditions: read-out: Ki, competition of 125I-AIV binding
AT4 receptor [4] = target: T2, AT4 receptor (Oryctolagus cuniculus, UniProt G1SFU4); experiment: 125I-AIV binding and competition, rabbit heart P2 membranes; conditions: read-out: Ki, competition of 125I-AIV binding; 0.5 nM 125I-AIV, 120 min, 37° C.
T2 sequence (G1SFU4 1-1025): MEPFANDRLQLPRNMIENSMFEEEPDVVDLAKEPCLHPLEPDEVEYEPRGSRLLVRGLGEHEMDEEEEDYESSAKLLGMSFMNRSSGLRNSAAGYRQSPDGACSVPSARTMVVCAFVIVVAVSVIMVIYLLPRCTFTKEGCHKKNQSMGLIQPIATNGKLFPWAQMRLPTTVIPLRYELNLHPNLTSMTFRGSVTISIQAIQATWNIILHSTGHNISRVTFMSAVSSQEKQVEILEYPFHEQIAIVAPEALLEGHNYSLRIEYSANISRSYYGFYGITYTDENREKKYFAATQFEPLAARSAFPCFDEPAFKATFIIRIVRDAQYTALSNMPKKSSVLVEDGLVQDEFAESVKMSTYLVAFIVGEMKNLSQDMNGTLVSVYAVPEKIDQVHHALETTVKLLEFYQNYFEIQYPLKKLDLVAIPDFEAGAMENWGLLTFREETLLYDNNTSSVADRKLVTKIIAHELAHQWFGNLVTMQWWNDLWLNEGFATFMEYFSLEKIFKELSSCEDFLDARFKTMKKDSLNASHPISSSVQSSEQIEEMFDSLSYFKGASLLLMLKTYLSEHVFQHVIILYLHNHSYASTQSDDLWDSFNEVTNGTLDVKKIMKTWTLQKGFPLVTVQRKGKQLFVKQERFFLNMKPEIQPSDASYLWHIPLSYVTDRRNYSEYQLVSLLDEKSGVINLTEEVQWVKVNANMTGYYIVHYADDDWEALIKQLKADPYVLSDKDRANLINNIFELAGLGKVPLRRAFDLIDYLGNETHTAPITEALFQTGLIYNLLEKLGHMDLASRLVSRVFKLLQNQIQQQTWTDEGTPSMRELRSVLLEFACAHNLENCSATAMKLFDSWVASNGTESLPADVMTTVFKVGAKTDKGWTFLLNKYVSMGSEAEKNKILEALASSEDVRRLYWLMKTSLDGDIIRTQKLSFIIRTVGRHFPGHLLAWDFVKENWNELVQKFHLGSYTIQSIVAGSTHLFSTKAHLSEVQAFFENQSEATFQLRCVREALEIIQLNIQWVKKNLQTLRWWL

AT4 receptor [5] = target: T3, AT4 receptor (Cavia porcellus, UniProt H0VNM7); experiment: 125I-AIV binding and competition, guinea pig hippocampus membranes; conditions: read-out: Ki, competition of 125I-AIV binding, 0.6 nM 125I-AIV
T3 sequence (H0VNM7 1-1025): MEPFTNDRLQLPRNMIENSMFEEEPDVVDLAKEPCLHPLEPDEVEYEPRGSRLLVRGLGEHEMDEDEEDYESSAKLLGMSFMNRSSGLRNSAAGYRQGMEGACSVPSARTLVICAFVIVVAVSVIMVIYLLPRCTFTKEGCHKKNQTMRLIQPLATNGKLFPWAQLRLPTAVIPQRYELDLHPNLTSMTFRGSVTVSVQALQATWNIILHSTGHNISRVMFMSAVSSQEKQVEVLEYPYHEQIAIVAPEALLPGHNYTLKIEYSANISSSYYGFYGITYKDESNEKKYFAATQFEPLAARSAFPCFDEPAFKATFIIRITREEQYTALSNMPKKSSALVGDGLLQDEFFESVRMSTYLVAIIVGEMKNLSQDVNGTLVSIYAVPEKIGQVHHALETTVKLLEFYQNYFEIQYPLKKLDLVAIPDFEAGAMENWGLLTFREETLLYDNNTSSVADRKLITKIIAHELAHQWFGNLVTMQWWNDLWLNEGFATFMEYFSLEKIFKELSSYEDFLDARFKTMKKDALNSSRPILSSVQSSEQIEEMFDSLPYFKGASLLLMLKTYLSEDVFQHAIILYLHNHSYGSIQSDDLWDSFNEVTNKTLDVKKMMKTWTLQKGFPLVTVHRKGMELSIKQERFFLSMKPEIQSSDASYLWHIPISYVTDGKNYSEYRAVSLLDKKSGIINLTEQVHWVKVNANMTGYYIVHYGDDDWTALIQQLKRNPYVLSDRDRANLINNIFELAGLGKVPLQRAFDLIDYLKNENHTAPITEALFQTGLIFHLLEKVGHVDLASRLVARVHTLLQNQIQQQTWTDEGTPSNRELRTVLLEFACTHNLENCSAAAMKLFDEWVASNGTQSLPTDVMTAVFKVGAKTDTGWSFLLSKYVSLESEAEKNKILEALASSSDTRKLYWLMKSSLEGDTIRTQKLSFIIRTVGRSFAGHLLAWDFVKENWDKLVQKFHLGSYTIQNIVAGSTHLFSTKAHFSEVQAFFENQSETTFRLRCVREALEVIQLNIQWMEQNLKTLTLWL

[6] = solubilized bovine adrenal cortical receptor
[7] = read-out: Ki, competition of 125I-AIV binding, 0.5 nM 125I-AIV
[8] = bovine adrenal cortical membranes

Molecule | Ki (AT4 receptor [1]; [6]) [nM] | further results
CC[C@H](C)[C@H](NC(=O)[C@H](Cc1ccc(O)cc1)NC(=O)[C@@H](N)C(C)C)C(=O)N[C@@H](Cc1c[nH]cn1)C(=O)N1CCC[C@H]1C(=O)N[C@@H](Cc1ccccc1)C(=O)N[C@@H](Cc1c[nH]cn1)C(=O)N[C@@H](CC(C)C)C(=O)O [AI(3-10)] (H-VYIHPFHL-OH) | 0.963 | –
CC[C@H](C)[C@H](NC(=O)[C@H](Cc1ccc(O)cc1)NC(=O)[C@@H](NC(=O)[C@H](CCCNC(=N)N)NC(=O)[C@@H](N)CC(=O)O)C(C)C)C(=O)N[C@@H](Cc1cnc[nH]1)C(=O)N1CCC[C@H]1C(=O)N[C@@H](Cc1ccccc1)C(=O)O [AII, Asp1 Arg2 Val3 Tyr4 Ile5 His6 Pro7 Phe8, reference compound] | > 1000 | Ki (AT4 receptor [2]; [7]): 194 ± 44.5 nM; Ki (AT4 receptor [3]; [8]): > 1000 nM
CC[C@H](C)[C@H](NC(=O)[C@H](Cc1ccc(O)cc1)NC(=O)[C@@H](NC(=O)CCCN)C(C)C)C(=O)N[C@@H](Cc1c[nH]cn1)C(=O)N1CCC[C@H]1C(=O)N[C@@H](Cc1ccccc1)C(=O)O [GABA-Nterm-AIV] (H-[GABA]VYIHPF-OH) | > 1000 | –
CC[C@H](C)[C@H](NC(=O)[C@H](Cc1ccc(O)cc1)NC(=O)[C@@H](N)CCCCN)C(=O)O [KYI] (H-Lys-Tyr-Ile-OH) | 30 | –
CCCC[C@H](N)C(=O)N[C@@H](Cc1ccccc1)C(=O)N[C@H](C(=O)O)[C@@H](C)CC [Nle-F-I] (H-[Nle]-Phe-Ile-OH) | 51.7 | –
CCCC[C@H](N)C(=O)N[C@@H](Cc1ccc(O)cc1)C(=O)N[C@H](C(N)=O)[C@@H](C)CC [Nle-Y-I amide] (H-[Nle]-Tyr-Ile-NH2) | – | Ki (AT4 receptor [1]): 2.06 nM
CCCC[C@H](N)C(=O)N[C@@H](Cc1ccc(O)cc1)C(=O)N[C@H](C(=O)NCC(=O)O)[C@@H](C)CC [Nle-Y-I-G] (H-[Nle]YIG-OH) | 8.75 | –
CCCC[C@H](N)C(=O)N[C@@H](Cc1ccc(O)cc1)C(=O)N[C@H](C(=O)O)[C@@H](C)CC [Nle-Y-I] (H-[Nle]-Tyr-Ile-OH) | – | Ki (AT4 receptor [1]): 8.3 nM
CC[C@H](C)[C@H](NC(=O)[C@H](Cc1ccc(O)cc1)NC(=O)[C@@H](N)C(C)C)C(=O)N[C@@H](Cc1cnc[nH]1)C(=O)O [VYIH] (H-VYIH-OH) | – | Ki (AT4 receptor [3]; bovine adrenal cortical AT4 receptor): > 500 nM
CC(C)[C@H](N)CN[C@@H](Cc1ccc(O)cc1)C(=O)N[C@H](CN[C@@H](Cc1c[nH]cn1)C(=O)N1CCC[C@H]1C(=O)N[C@@H](Cc1ccccc1)C(=O)O)C(C)C [Val1 Val3 AIV, ^+ H3 N-Val(CH2 NH)Tyr-Val(CH2 NH)-His-Pro-Phe-COO--] | 1.29 | –
CGP42112A | > 100000 | Ki (AT4 receptor [2]; read-out: Ki, competition of 125I-AIV binding, unit inferred): > 100000 nM; Ki (AT4 receptor [3]; [8]): > 100000 nM; Ki (AT4 receptor [4]): > 1000 nM; Ki (AT4 receptor [5]): > 100000 nM

Further lines, with some results ahead:

Ki (AT4 receptor [1]; [6]) [nM] | Molecule | further results
> 1000 | CC[C@H](C)[C@H](NC(=O)[C@@H]1CCCN1C(=O)[C@H](Cc1c[nH]cn1)NC(=O)[C@@H](NC(=O)[C@H](Cc1ccc(O)cc1)NC(=O)[C@@H](NC(=O)[C@H](CCCN=C(N)N)NC(=O)CNC)C(C)C)[C@@H](C)CC)C(=O)O [Sar1,Ile8-AII] | Ki (AT4 receptor [2]; [7]): 261 ± 89.1 nM; Ki (AT4 receptor [3]; [8]): > 1000 nM
82.5 | CC[C@H](C)[C@H](NC(=O)[C@H](Cc1ccc(O)cc1)NC(=O)[C@@H](NC(=O)CNC)C(C)C)C(=O)N[C@@H](Cc1c[nH]cn1)C(=O)N1CCC[C@H]1C(=O)N[C@@H](Cc1ccccc1)C(=O)O [Sar1-AIII] (H-[Sar]VYIHPF-OH) | –
280 | CC[C@H](C)[C@H](NC(=O)[C@H](Cc1ccc(O)cc1)NC(=O)[C@@H](NC(=O)[C@H](CCCNC(=N)N)NC(=O)CNC)C(C)C)C(=O)N[C@@H](Cc1cnc[nH]1)C(=O)N1CCC[C@H]1C(=O)N[C@@H](Cc1ccccc1)C(=O)O [Sar1-AII] | –
16.9 | CC[C@H](C)[C@H](NC(=O)[C@H](Cc1ccc(O)cc1)NC[C@@H](N)C(C)C)C(=O)N[C@@H](Cc1c[nH]cn1)C(=O)N1CCC[C@H]1C(=O)N[C@@H](Cc1ccccc1)C(=O)O [Val1 AIV] (H-[X1]IHPF-OH) | –
10.1 | CC(C)[C@H](N)C(=O)N[C@@H](Cc1ccc(O)cc1)C(=O)N[C@H](CN[C@@H](Cc1c[nH]cn1)C(=O)N1CCC[C@H]1C(=O)N[C@@H](Cc1ccccc1)C(=O)O)C(C)C [Val3 AIV] | –
74.5 | CC[C@H](C)[C@H](NC(=O)[C@H](Cc1ccc(O)cc1)NC(=O)[C@@H](N)C(C)C)C(=O)N[C@@H](Cc1cnc[nH]1)C(=O)N1CCC[C@H]1C(=O)O [des Phe6-AIV] (H-VYIHP-OH) | Ki (AT4 receptor [2]; [7]): 7.3 ± 1.2 nM
> 1000 | CC[C@H](C)[C@H](NC(=O)[C@H](Cc1ccc(O)cc1)NC(=O)[C@@H](NC(=O)[C@H](CCCNC(=N)N)NC(=O)[C@@H](N)CC(=O)O)C(C)C)C(=O)N[C@@H](Cc1c[nH]cn1)C(=O)N1CCC[C@H]1C(=O)O [des Phe8-AII] | –
